# Data published in patent publication US9744191B2, “Antimicrobial compositions and methods” (Yale University, priority 2012, dated 2017).
# Details: millimolar concentrations (1 to 10 mM) in YPD medium
substance,measurement,setting,value
cyclic hepta-arginine [NOVEXATIN®],solubility in culture medium,,becomes an issue
same,solubility in culture medium,listed as Novexatin®,appeared to precipitate

# Like-named read-outs stand apart in the source and are kept apart here.
